## Yeast mating assay 1: variants of the scFv Ab-14

Values reported by Engelhart et al. 2022, doi:10.1038/s41597-022-01779-4 (FLAb copy).

All variants were tested on one target, the spike HR2 peptide PDVDLGDISGINAS (SARS-CoV-2).

Parent: Ab-14, a human scFv built as VH, the linker GGGGSGGGGSGGGGS, VL. Only the CDRs of the light chain vary.
VH: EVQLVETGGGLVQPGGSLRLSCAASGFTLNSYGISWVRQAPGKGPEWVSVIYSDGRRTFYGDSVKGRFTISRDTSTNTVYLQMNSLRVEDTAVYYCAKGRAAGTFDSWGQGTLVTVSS
VL: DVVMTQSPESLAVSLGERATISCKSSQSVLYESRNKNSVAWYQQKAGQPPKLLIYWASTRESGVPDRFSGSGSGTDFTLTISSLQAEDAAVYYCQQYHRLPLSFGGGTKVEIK

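The library (AAYL50) carries one to three amino acid substitutions per variant, with no insertions or deletions. The assay is AlphaSeq: two haploid yeast populations carry antibody and antigen on their surface. Pairs that bind mate more often; barcode pairs of the diploids are counted by sequencing. A regression on co-assayed BCL2-family reference pairs converts the normalised counts of each replicate to an apparent Kd. There are three technical replicates.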

Each variant is given by its three light chain CDRs, as the data file delimits them; those of the parent are KSSQSVLYESRNKNSVA, WASTRES, QQYHRLPLS.
Scale: log10 of Kd in nM, estimated from mating counts; low values are strong binders.
Averages over replicates are reported, and they cover detected replicates only.
An entry "nd" has no value in the source: the pair was not observed among the diploids in that replicate. This suggests poor binding but is not conclusive.
For reference, the parent read 0.65 as the reference entry and 1.68 as a member of this library.
Nonspecific signal, from three strains lacking the peptide, appeared in 18% of pairings of library AAYL50, centred on 4.19 (5% of these signals below 2.99); values are not corrected for it. Also given: how often the same scFv was detected with the empty control strains, with their mean in brackets.

CDR-L1	CDR-L2	CDR-L3	replicates, log10 nM	log10 Kd (nM), mean	control signals
KSSQSVLYESWNKNSWA	WASTRES	QQYHRLPLS	5.25 / 4.28 / 5.69	5.07	7/9 (4.76)
KSSQEVLYESRNKNSVA	WASTRES	QQYKILPLS	0.65 / 1.22 / 0.67	0.85	2/9 (3.64)
KSMQSVLYESRNKNSVS	WASTRES	QQYHRLGLS	nd / nd / nd	nd	0/9
ESSQSVLYESRNKNAVA	WASTRES	QQYHMLPLS	2.77 / 2.80 / 3.14	2.90	4/9 (4.15)
KSSDSVLYESRNKNSVA	WASRRES	QQYHNLPLS	1.18 / 1.73 / 1.42	1.44	5/9 (4.46)
KSSQSRLYESRNKNSVA	WASTRVS	QQCHRLPLS	nd / nd / nd	nd	0/9
KSSQSVLYESRNKSSVA	WASTRES	QQYHDLPLS	2.82 / 2.65 / 2.74	2.73	5/9 (4.43)
KSSMSVLYEDRNKNRVA	WASTRES	QQYHRLPLS	1.29 / 1.35 / 1.39	1.34	3/9 (5.14)
KSSQSWLYESRNKNSVA	WASQRES	QQYHRLPAS	2.32 / 1.99 / 2.22	2.18	5/9 (4.85)
KSSQMVLYESRNKNSVI	WASTRES	QQYNRLPLS	nd / nd / nd	nd	0/9
KSSQSDLYESRNKNSVA	WASTRES	QGYHRHPLS	1.20 / 1.41 / 1.36	1.33	2/9 (4.30)
KSSASVLYESRNKNSVA	WASTREC	QQYHRLMLS	nd / 3.55 / nd	3.55	1/9 (2.90)
KSSQSWLYESRNKNSVA	NASTRES	QQYHRLPSS	-0.48 / -0.11 / -0.23	-0.27	2/9 (3.69)
KSSWSVLTESRNKNSVA	WASRRES	QQYHRLPLS	1.41 / 1.36 / 1.44	1.40	1/9 (3.23)
KSSQSVLYSSRNKNSVA	TASTRES	QNYHRLPLS	2.24 / 2.32 / 2.50	2.35	2/9 (3.49)
KSQQSELYESRNGNSVA	WASTRES	QQYHRLPLS	0.92 / 1.04 / 1.08	1.01	1/9 (5.09)
KSSQSVLYASRNDNSVA	WAFTRES	QQYHRLPLS	nd / nd / 2.58	2.58	0/9
KSSQSRLYESRNKFSVA	WASTRES	QQYHRSPLS	nd / nd / nd	nd	1/9 (4.29)
KSSQNVLYESRNKNSVA	EAWTRES	QQYHRLPLS	4.11 / nd / nd	4.11	0/9
KSSQSVLYESRNKNSVA	VASTRES	QQYHFLPSS	3.05 / 2.40 / 2.70	2.72	2/9 (2.93)
KSAQSVLYESRNKNSVA	WASKGES	QQYHRLPLS	nd / nd / nd	nd	1/9 (2.60)
KSSQSELYESRNKNSVA	WASTRES	QMYHRLILS	nd / nd / nd	nd	0/9
KSSQSVLYCSGNKNSVA	QASTRES	QQYHRLPLS	0.79 / 0.88 / 0.86	0.84	0/9
KSSYSVLYASRNKNSVA	WAITRES	QQYHRLPLS	3.07 / 2.86 / nd	2.96	1/9 (4.73)
KSSQMVLYESRNKSSVA	WASTRAS	QQYHRLPLS	1.59 / 1.73 / 2.19	1.84	1/9 (3.25)
KSSFSVLYESRNKMSVA	WASTRES	QQYIRLPLS	1.09 / 1.80 / 1.89	1.59	0/9
KSSQSVLYESRNKNSVA	WASTRRL	QQYHRLPLT	2.09 / 2.00 / 2.43	2.18	4/9 (4.58)
KSSQSVLYEARNKNSVA	WASTRES	QQYHRSELS	2.18 / 1.75 / 1.74	1.89	0/9
KSSQSVLYESRNKFSVA	WASTRES	QQYHRLPRS	2.57 / 1.97 / 1.95	2.16	0/9
KSSQSVLYESRNKNSVA	WASTRES	QQEHRAPLS	nd / nd / nd	nd	0/9
KSSQSVLYESRNKNSVR	WASTRES	QQYHPLRLS	5.90 / 4.39 / 5.64	5.31	4/9 (4.71)
KSSQSVLYESRNKNAVA	WASTHES	QQYHRIPLS	3.97 / 3.60 / 3.56	3.71	3/9 (3.99)

3 of these entries, quoted again:

CDR-L1	CDR-L2	CDR-L3	replicates, log10 nM	log10 Kd (nM), mean	control signals
KSMQSVLYESRNKNSVS	WASTRES	QQYHRLGLS	nd / nd / nd	nd	0/9
KSSQSVLYEARNKNSVA	WASTRES	QQYHRSELS	2.18 / 1.75 / 1.74	1.89	0/9
KSSQEVLYESRNKNSVA	WASTRES	QQYKILPLS	0.65 / 1.22 / 0.67	0.85	2/9 (3.64)